# Test system: white blood cells (WBC)
# Assay: Myelosuppressive effects of oxaliplatin in balb/c mice, cytoprotection
# Conditions: calmangafodipir 5 mg/kg, MnPLED 1 mg/kg iv; oxaliplatin 12.5 mg/kg
compound,measurement,value
Cc1ncc(COP(=O)([O-])O)c(CN(CCN(CC(=O)O)Cc2c(COP(=O)([O-])O)cnc(C)c2O)CC(=O)O)c1O.Cc1ncc(COP(=O)([O-])O)c(CN(CCN(CC(=O)O)Cc2c(COP(=O)([O-])O)cnc(C)c2O)CC(=O)O)c1O.Cc1ncc(COP(=O)([O-])O)c(CN(CCN(CC(=O)O)Cc2c(COP(=O)([O-])O)cnc(C)c2O)CC(=O)O)c1O.Cc1ncc(COP(=O)([O-])O)c(CN(CCN(CC(=O)O)Cc2c(COP(=O)([O-])O)cnc(C)c2O)CC(=O)O)c1O.Cc1ncc(COP(=O)([O-])O)c(CN(CCN(CC(=O)O)Cc2c(COP(=O)([O-])O)cnc(C)c2O)CC(=O)O)c1O.[Ca+2].[Ca+2].[Ca+2].[Ca+2].[Mn+2] [calmangafodipir],protection from oxaliplatin-induced fall in WBC compared with mangafodipir,statistically significant more efficacious than 1 mg/kg mangafodipir

# Source: patent publication US10111893B2, “Calmangafodipir, a new chemical entity, and other mixed metal complexes, methods of preparation, compositions, and methods of treatment” (priority 2012, dated 2018)
